Assay results reported in US10100058B2, “Fused heterocyclic compounds as CaM kinase inhibitors” (Gilead Sciences, Inc., priority 2016, dated 2018).

Target: recombinant CaMKIIδ (Homo sapiens (Human), UniProt Q13557)
Assay: CaMKIIδ biochemical assay (HTRF)
Conditions: 10 pM CaMKIIδ, 110 nM calmodulin, 12 μM ATP, 1 hour; read-out: CAMKIID-HTRF-384V2 (IC50 - nM)
Protocol: CaMKIIδ Biochemical Assay
The biochemical activity of recombinant CaMKIIδ was measured by monitoring the phosphorylation of a target peptide using Homogenous Time Resolved Fluorescence (HTRF) technology from CisBio Bioassays.

IC50 [nM] | SMILES
268 | O=C(NCC1CCCCN1)c1ccnc(-c2cnn3ccc(-c4ccccc4)nc23)c1 (stereo not drawn) [Example 40, 2-(5-phenylpyrazolo[1,5-a]pyrimidin-3-yl)-N-(piperidin-2-ylmethyl)isonicotinamide]
547 | N[C@@H]1CCC[C@H]1NC(=O)c1ccnc(-c2cnn3ccc(-c4ccccc4)nc23)c1 [Example 71, N-((1R,2R)-2-aminocyclopentyl)-2-(5-phenylpyrazolo[1,5-a]pyrimidin-3-yl)isonicotinamide]
106 | N[C@@H]1CCC[C@@H]1NC(=O)c1ccnc(-c2cnn3ccc(-c4ccccc4)nc23)c1 [Example 72, N-((1S,2R)-2-aminocyclopentyl)-2-(5-phenylpyrazolo[1,5-a]pyrimidin-3-yl)isonicotinamide]
